In PubChem BioAssay AID2098 (Broad Institute, 2009):
This is a selection; strong and weak results do not stand in their true shares. The source made the active and inactive calls.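 Rule for the calls: active = more than half of replicate wells show activity change below -50%, luminescence cut by over half; inconclusive = some wells, but at most half, below -50%; inactive = no replicate well below -50%.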

Experiment: blocking HSF1-driven luciferase expression – cell-based, NIH3T3, luminescence, primary screen (AID 2098);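 note: luciferase reports HSF-1 transcriptional activity via heat shock element; 0% = median of DMSO wells and -100% = zero luminescence signal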
Conditions: NIH3T3-HGL HSE-luciferase, MG132-induced, luminescence 8 h; hits give low values; screened at 7.5 µM (by protocol)

Question: Which activity change, negative = inhibition does the source give for `Cc1c2c(nc3ccccc13)SC(C(Cl)Cl)C2` (stereo not given) here?
Answer: inactive: 15.1%

Question: For `CCN(CC)C(=S)SC(NC=O)C(Cl)(Cl)Cl` (stereo not given), which activity change, negative = inhibition is on record?
Answer: inactive: 2.89%

Question: Which activity change, negative = inhibition does the source give for `CC(C)NC(=O)NP(=O)(Oc1ccccc1)Oc1ccccc1` here?
Answer: inactive: -0.307%

Question: Which activity change, negative = inhibition does the source give for `O=[N+]([O-])c1cc([N+](=O)[O-])c(-c2ccn[nH]2)s1` here?
Answer: inactive: 15.4%

Question: Which activity change, negative = inhibition does the source give for `CC(C)c1ccc(OP(=O)(Nc2ccccn2)Oc2ccccc2F)cc1` (stereo not given) here?
Answer: inactive: -6.5%

Question: With `ClCCSc1nnc(-c2cccnc2)o1` as the molecule, how does the activity change, negative = inhibition read?
Answer: inactive: -8.26%

Question: Which activity change, negative = inhibition does the source give for `Cc1ccc2nc3c(c(C)c2c1)CC(C(Cl)Cl)S3` (stereo not given) here?
Answer: inactive: 12.5%

Question: For `Cc1ccc(OP(=O)(Nc2ccc([N+](=O)[O-])cn2)Oc2ccc(C)cc2)cc1`, which activity change, negative = inhibition is on record?
Answer: inactive: -0.597%

Question: For `O=[As](O)(c1ccc(O)cc1)c1ccccc1O`, which activity change, negative = inhibition is on record?
Answer: inactive: -5.25%

Question: For `C[As](=O)(O)c1cccc(C(=O)O)c1`, which activity change, negative = inhibition is on record?
Answer: inactive: -8.4%

Question: For `O=[N+]([O-])c1ccc(Nc2ccc(Oc3ccc([N+](=O)[O-])cc3[N+](=O)[O-])cc2)c([N+](=O)[O-])c1`, which activity change, negative = inhibition is on record?
Answer: inactive: 3.68%

Question: For `Cc1cc(SC(NC=O)C(Cl)(Cl)Cl)ncn1` (stereo not given), which activity change, negative = inhibition is on record?
Answer: inactive: -1.37%

Question: With `O=P(Nc1ccccn1)(c1cccc2ccccc12)c1cccc2ccccc12` as the molecule, how does the activity change, negative = inhibition read?
Answer: inactive: -0.158%

Question: Which activity change, negative = inhibition does the source give for `CCOC(=O)Nc1cccc([As](=O)(O)O)c1` here?
Answer: inactive: -3.01%

Question: For `CCCCOc1ccc(C(=O)NCC2(N3CCCCC3)CCCCC2)cc1OC`, which activity change, negative = inhibition is on record?
Answer: inactive: 2.03%

Question: For `Cc1cc(SC(NC(=O)c2ccccc2)C(Cl)(Cl)Cl)nc(C(C)C)n1` (stereo not given), which activity change, negative = inhibition is on record?
Answer: inactive: 9.09%

Question: With `CCOC(=O)Nc1ccc([As](=O)(O)O)c(O)c1` as the molecule, how does the activity change, negative = inhibition read?
Answer: inactive: -2.43%

Question: With `CCC(C)N(CC(C)C)C(=S)SC(NC(C)=O)C(Cl)(Cl)Cl` (stereo not given) as the molecule, how does the activity change, negative = inhibition read?
Answer: inactive: 15.8%

Question: Which activity change, negative = inhibition does the source give for `CCOC(=O)c1ccc(NC(=O)C(C)(CCl)SC)cc1` (stereo not given) here?
Answer: inactive: 5.51%

Question: With `O=C(OC1CN2CCC1CC2)c1cccc([N+](=O)[O-])c1` (stereo not given) as the molecule, how does the activity change, negative = inhibition read?
Answer: inactive: -1.42%

Question: With `O=C(COc1ccccc1)OC1CN2CCC1CC2` (stereo not given) as the molecule, how does the activity change, negative = inhibition read?
Answer: inactive: 2.86%

Question: Which activity change, negative = inhibition does the source give for `O=C(Nc1ccncc1[N+](=O)[O-])c1ccc([N+](=O)[O-])cc1[N+](=O)[O-]` here?
Answer: inactive: -2.25%

Question: With `COP1(=S)c2c(C)nn(CCC#N)c2N=C(c2ccc(F)cc2)N1C` (stereo not given) as the molecule, how does the activity change, negative = inhibition read?
Answer: inactive: -2.48%

Question: Which activity change, negative = inhibition does the source give for `CC(C)=N/N=C(\N)N[N+](=O)[O-]` here?
Answer: inactive: -2.71%

Question: Which activity change, negative = inhibition does the source give for `CN(C)C(=O)OCCc1n(C)cc[n+]1C` here?
Answer: inactive: -2.49%

Question: For `CC1CCN(C(=O)Oc2c(Cl)cc(Cl)c3cccnc23)CC1`, which activity change, negative = inhibition is on record?
Answer: inactive: 14.4%

Question: With `Nc1ccc([As](=O)(O)c2ccc(N)cc2)cc1` as the molecule, how does the activity change, negative = inhibition read?
Answer: inactive: 3.87%

Question: Which activity change, negative = inhibition does the source give for `C[N+]1=C2C=CC=CC=C2SC12C([N+](=O)[O-])=CC([N+](=O)[O-])=C[C-]2[N+](=O)[O-]` (stereo not given) here?
Answer: inactive: 13.6%

Question: For `CCN(/C(=N/P(=O)(N1CCOCC1)N1CCOCC1)N1CCOCC1)c1ccc(OC)cc1`, which activity change, negative = inhibition is on record?
Answer: inactive: -5.49%

Question: With `CC(=O)N1C2C3N(C(C)=O)C1C1N(C(C)=O)C(C(N1C(C)=O)N3C(C)=O)N2C(C)=O` as the molecule, how does the activity change, negative = inhibition read?
Answer: inactive: -8.26%

Question: For `O=[N+]([O-])c1cccc2n[nH]nc12`, which activity change, negative = inhibition is on record?
Answer: inactive: -4.31%

Question: For `Cc1ccc(NP(=O)(Oc2ccccc2)Oc2ccccc2)nc1`, which activity change, negative = inhibition is on record?
Answer: inactive: 1.86%

Question: Which activity change, negative = inhibition does the source give for `O=[N+]([O-])c1cc([N+](=O)[O-])c(CCNc2ccccc2)c([N+](=O)[O-])c1` here?
Answer: inactive: 16.1%

Question: Which activity change, negative = inhibition does the source give for `CCc1nc2c(n1)c1c(non1O)c1c2no[n+]1[O-]` here?
Answer: inactive: 147%

Question: For `COc1ccc(C2=NCC(CBr)S2)cc1` (stereo not given), which activity change, negative = inhibition is on record?
Answer: inactive: -3.06%

Question: Which activity change, negative = inhibition does the source give for `O=[N+]([O-])c1cccc(NC2=NCC(CBr)S2)c1` (stereo not given) here?
Answer: inactive: -2.8%

Question: With `O=C(O)CNc1ccc([As](=O)(O)O)cc1` as the molecule, how does the activity change, negative = inhibition read?
Answer: inactive: 0.994%

Question: Which activity change, negative = inhibition does the source give for `CC(C)(C)C(=O)NC(Sc1ccncn1)C(Cl)(Cl)Cl` (stereo not given) here?
Answer: inactive: -8.17%

Question: Which activity change, negative = inhibition does the source give for `O=[N+]([O-])c1ncn(CCn2ncnc2[N+](=O)[O-])n1` here?
Answer: inactive: -4.22%

Question: With `O=C(Nc1cc([As](=O)(O)O)ccc1O)c1ccccc1` as the molecule, how does the activity change, negative = inhibition read?
Answer: inactive: -3.71%

Question: For `CCN(N=Nc1nonc1N)c1nonc1N`, which activity change, negative = inhibition is on record?
Answer: inactive: -3.18%

Question: With `Nc1cccc2ccc([As](=O)(O)O)cc12` as the molecule, how does the activity change, negative = inhibition read?
Answer: inactive: -5.46%

Question: With `O=[N+]([O-])c1cc([N+](=O)[O-])c(CCN2CCOCC2)c([N+](=O)[O-])c1` as the molecule, how does the activity change, negative = inhibition read?
Answer: inactive: 5.29%

Question: For `CCOP(=O)(Nc1ccccc1)OCC`, which activity change, negative = inhibition is on record?
Answer: inactive: -0.264%

Question: Which activity change, negative = inhibition does the source give for `Cc1cc(SC(NC(=O)c2ccc(F)cc2)C(Cl)(Cl)Cl)ncn1` (stereo not given) here?
Answer: inactive: -2.54%

Question: Which activity change, negative = inhibition does the source give for `CN(C(=O)Cc1ccc(Cl)c(Cl)c1)[C@H]1CCCC[C@@H]1N1CCCC1` here?
Answer: inactive: -5.69%

Question: With `Cc1ccc(NP(=O)(Oc2ccccc2F)Oc2ccccc2F)nc1` as the molecule, how does the activity change, negative = inhibition read?
Answer: inactive: 0.618%

Question: Which activity change, negative = inhibition does the source give for `O=C(O)c1ccccc1[As](=O)(O)O` here?
Answer: inactive: -0.611%

Question: With `CC(=O)Nc1ccc([As](=O)(O)O)cc1` as the molecule, how does the activity change, negative = inhibition read?
Answer: inactive: 3.08%

Question: Which activity change, negative = inhibition does the source give for `O=P(Nc1nc2ccc(Cl)cc2s1)(c1ccccc1)c1ccccc1` here?
Answer: inactive: 24.8%
